Emax data for one molecule are collected here from ChEMBL document CHEMBL5131569, “SAGE-718: A First-in-Class N-Methyl-d-Aspartate Receptor Positive Allosteric Modulator for the Potential Treatment of Cognitive Impairment” (J Med Chem, 2022).

By UniProt entry, the sequences of proteins in these tests, tags left out. Where a name states a change or a piece, a line headed by the entry shows the natural chain unless it says otherwise.
UniProt Q14957: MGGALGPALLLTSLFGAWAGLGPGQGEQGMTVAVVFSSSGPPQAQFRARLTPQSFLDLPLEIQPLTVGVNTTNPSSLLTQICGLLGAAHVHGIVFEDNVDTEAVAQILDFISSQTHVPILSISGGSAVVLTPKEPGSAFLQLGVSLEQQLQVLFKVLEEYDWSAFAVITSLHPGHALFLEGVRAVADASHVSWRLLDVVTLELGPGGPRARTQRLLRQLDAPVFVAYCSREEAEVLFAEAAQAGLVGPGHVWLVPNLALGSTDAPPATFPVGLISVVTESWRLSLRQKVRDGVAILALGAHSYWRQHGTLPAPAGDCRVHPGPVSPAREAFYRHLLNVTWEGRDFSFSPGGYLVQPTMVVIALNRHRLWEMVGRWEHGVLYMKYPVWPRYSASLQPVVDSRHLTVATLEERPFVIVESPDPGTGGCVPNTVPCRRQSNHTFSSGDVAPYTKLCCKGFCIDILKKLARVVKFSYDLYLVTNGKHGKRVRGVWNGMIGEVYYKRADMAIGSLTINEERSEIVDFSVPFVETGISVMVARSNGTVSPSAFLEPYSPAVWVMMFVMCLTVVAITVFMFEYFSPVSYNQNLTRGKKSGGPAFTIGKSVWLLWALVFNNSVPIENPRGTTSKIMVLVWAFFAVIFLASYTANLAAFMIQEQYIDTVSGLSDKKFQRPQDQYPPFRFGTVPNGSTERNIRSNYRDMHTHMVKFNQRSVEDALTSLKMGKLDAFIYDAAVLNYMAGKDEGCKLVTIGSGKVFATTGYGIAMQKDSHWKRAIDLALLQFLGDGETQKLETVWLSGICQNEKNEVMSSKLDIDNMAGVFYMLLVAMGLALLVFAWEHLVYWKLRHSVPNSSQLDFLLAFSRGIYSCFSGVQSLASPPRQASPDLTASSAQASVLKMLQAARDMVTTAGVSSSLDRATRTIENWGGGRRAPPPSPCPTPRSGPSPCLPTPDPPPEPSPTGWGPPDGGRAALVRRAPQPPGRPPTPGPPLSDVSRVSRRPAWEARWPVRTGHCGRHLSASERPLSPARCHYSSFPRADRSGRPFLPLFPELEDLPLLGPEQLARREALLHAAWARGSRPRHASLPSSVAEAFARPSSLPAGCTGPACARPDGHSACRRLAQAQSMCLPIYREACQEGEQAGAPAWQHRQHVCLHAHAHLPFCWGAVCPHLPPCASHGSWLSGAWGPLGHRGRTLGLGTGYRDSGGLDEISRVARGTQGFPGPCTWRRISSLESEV
UniProt O15399, whole entry, looked up: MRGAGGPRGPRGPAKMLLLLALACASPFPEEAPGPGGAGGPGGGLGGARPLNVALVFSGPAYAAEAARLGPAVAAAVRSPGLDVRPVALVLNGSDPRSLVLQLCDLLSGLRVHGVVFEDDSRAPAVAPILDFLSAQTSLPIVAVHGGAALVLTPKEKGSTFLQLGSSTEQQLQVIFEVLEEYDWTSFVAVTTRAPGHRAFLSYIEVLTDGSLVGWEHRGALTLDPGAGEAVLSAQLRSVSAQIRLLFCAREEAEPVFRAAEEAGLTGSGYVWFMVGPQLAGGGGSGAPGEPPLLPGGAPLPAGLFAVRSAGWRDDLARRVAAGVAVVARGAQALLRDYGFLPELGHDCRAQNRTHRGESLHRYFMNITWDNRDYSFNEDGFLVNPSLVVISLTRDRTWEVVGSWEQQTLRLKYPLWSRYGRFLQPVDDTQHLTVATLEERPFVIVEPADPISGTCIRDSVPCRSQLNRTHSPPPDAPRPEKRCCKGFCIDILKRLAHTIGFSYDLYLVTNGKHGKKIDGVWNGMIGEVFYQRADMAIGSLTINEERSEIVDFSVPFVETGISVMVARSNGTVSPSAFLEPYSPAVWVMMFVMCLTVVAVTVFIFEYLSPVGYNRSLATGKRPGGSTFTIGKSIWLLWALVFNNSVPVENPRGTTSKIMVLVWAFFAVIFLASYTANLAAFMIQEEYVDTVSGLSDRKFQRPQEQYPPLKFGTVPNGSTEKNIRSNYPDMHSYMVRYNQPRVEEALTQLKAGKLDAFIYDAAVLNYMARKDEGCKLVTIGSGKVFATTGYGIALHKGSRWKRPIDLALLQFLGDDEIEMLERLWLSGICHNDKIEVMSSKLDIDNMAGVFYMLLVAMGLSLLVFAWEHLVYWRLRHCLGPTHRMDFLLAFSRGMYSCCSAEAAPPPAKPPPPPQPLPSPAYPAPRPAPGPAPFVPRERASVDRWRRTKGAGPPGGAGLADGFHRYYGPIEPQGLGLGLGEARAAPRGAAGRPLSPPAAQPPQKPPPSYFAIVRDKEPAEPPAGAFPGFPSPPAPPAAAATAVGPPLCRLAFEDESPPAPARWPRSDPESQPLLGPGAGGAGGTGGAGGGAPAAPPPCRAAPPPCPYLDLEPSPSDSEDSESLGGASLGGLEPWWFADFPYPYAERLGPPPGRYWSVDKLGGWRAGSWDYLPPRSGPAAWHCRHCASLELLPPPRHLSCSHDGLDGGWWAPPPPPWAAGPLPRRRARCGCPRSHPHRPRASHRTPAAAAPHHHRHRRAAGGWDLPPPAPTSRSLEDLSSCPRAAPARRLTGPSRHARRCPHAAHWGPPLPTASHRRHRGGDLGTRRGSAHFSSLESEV

SMILES strings stand for the structures.

For test [1], the target named is Ionotropic glutamate receptor NMDA 1/2C (Homo sapiens, UniProt Q05586+Q14957). In words: Positive allosteric modulation of recombinant human GluN1/GluN2C receptor stably expressed in HEK293 cells assessed as increase in glycine/L-glutamate-induced channel current at -70 mV holding potential by whole cell patch clamp method relative to control. It is filed as cell-based. The conditions noted are these: filed as positive allosteric modulator. Background: In patch-clamp work, channel activity is measured electrically.

The target of test [2] is Ionotropic glutamate receptor NMDA 1/2D (Homo sapiens) (UniProt Q05586+O15399). Briefly: Positive allosteric modulation of recombinant human GluN1/GluN2D receptor stably expressed in HEK293 cells assessed as increase in glycine/L-glutamate-induced channel current at -70 mV holding potential by whole cell patch clamp method relative to control. It is filed as cell-based. To be noted: filed as positive allosteric modulator.

Turning to `C[C@H](CC[C@](C)(O)C(F)(F)F)[C@H]1CC[C@H]2[C@@H]3CC=C4C[C@@](C)(O)CC[C@]4(C)[C@H]3CC[C@]12C` [DALZANEMDOR], the figures for the maximal response (Emax) in test [1] and in test [2] were 86% and 130%, respectively.
